The values that follow come from PubChem BioAssay AID438 (Columbia University Molecular Screening Center, 2006).

Only a part is listed here, and it is no random draw. The source made the active and inactive calls.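 How the source made its calls: active means inhibition above 20% together with a positive visual image hit; inconclusive means visual image hit but inhibition not above 20%; inactive means no visual image hit.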

The nature of this assay: inhibitors of TNFa-induced NFkB p65 translocation, primary screen, imaging, HUVEC, MLSMR starter and 10KST1 sets (AID 438).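 Further: compound added about 3h40 before a 20 min TNFalpha stimulation; signal is the nuclear over cytoplasmic p65 intensity ratio per well.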 The conditions noted are these: HUVEC TNFa-induced p65 nuclear translocation, at 2 µM, hits give high values, 0% TNFa-plus-vehicle, 100% no-TNFa wells.
Usually inhibition stands for the change of the read-out against control, counted positive when it falls. Take `CP(=S)(Nn1cnnc1)Oc1ccccc1` (stereo unspecified): the inhibition is inactive: -4.3%.

In the case of `Cc1ccc(C)c(NP(C)(=O)Oc2ccccc2)c1` (stereo unspecified), the inhibition is inactive: -10.1%.

Regarding `CP(=O)(Nc1ccc2c(c1)OCCO2)Oc1ccccc1` (stereo unspecified), the inhibition was inactive: 9.7%.

Take `CN(C)CCOC(=O)C(O)(c1ccccc1)C1CCCCC1` (stereo unspecified): the inhibition is inactive: 18.6%.

As for `CP(=O)(Nc1ccccn1)Oc1ccccc1` (stereo unspecified), the inhibition was inactive: 2.1%.

Consider `CCN(CC)CC(O)COC(=O)C(O)(c1ccccc1)C1CCCCC1` (stereo unspecified), for which the inhibition is inactive: -7.3%.
